Assay outcomes deposited in PubChem by National Center for Advancing Translational Sciences (NCATS).
TDP1 cell noCPT: qHTS for Inhibitors of human tyrosyl-DNA phosphodiesterase 1 (TDP1): qHTS in cells in absence of CPT; DT40 Tdp1-/- hTDP1 cells, no CPT, ATP luminescence, 48 h; Potency, µM (top dose mostly 46.2 µM), most hits filed as inhibitors; actives 15% (n = 420,000); AID 686978, 2013; also: nearly all actives have a fitted effect of over 55% in size
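Camptothecin absent (DMSO only). Human TDP1-complemented DT40 knockout cells, 400 cells/well, 37 °C for minimum 48 hr; ATP measured via CellTiter-Glo, 30 min dark incubation, luminescence.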
uPA generation: cell surface uPA generation inhibition | cell surface uPA generation assay, qHTS | Potency, µM (titrated, usually from 38.3 µM), usual class: inhibitors | actives 0.31% (n = 330,000) | AID 540303; active = well fitted inhibition curve with a large enough effect; inconclusive = small, poorly fitted or top-dose-only effect; inactive = no such curve, though single readings can be large or run the other way; tested in mouse RAW 264.7 cells; also: nearly all actives have a fitted effect of over 55% in size
miR-21 reporter: raises the signal of a miR-21 reporter. Potency, µM (highest dose often 38.3 µM). 340,000 tested, under 10 active. HeLa miR-21 FLuc reporter, luciferase, 48 h; active = well fitted rising curve with a large enough effect; inconclusive = small, poorly fitted or top-dose-only effect; inactive = no such curve, though single readings can be large or run the other way;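 further: miR-21 action dims this reporter so a rising signal means less miR-21 action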
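HeLa cells endogenously expressing miR-21, stably carrying CMV-driven firefly luciferase with a downstream miR-21 binding site, 2000 cells/well. Titrations up to approximately 40 uM, 48 hours; luciferase luminescence read.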
TDP1 block: inhibitors of human tyrosyl-DNA phosphodiesterase TDP1 | Potency, µM (top dose mostly 130 µM), most hits filed as inhibitors | Q9NUW8 | AID 485290 | recombinant TDP1, AlphaScreen DNA substrate cleavage | actives 0.28% (n = 350,000); also: nearly all actives have a fitted effect of over 40% in size
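Tdp1 1 nM final; 15 min RT w/ cpd; substrate 15 nM, 5 min; beads 10 ug/ml, 10 min; AlphaScreen read. Neg ctrl: no enzyme.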
DT40 TDP1 CPT: DT40-hTDP1 cell growth loss with CPT | chicken DT40 Tdp1-/-;hTDP1 cells + 20 nM CPT, ATP luminescence, 48 h | actives 12% (n = 420,000) | Potency, µM (titrated, usually from 46.2 µM), most hits filed as inhibitors; also: nearly all actives have a fitted effect of over 55% in size
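Chicken DT40 Tdp1-/- cells complemented with human TDP1, 400 cells/well, exposed to compounds plus 20 nM camptothecin for at least 48 h at 37 C; viability read as ATP content by CellTiter-Glo luminescence.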
Hits are given with their value; – = inactive; ? = inconclusive; · = not tested or not shown. Hits are enriched below; roughly 16% of the tested compounds scored in any of these assays. Unless noted, calls follow the shape of the dose curve; as a rule, active = well fitted curve in the direction sought with a large enough effect; inconclusive = small, poorly fitted or top-dose-only effect, or another doubt; inactive = no such curve, though single readings can be large; an effect the other way counts as inactive or inconclusive.

SMILES	TDP1 cell noCPT	uPA generation	miR-21 reporter	TDP1 block	DT40 TDP1 CPT
COc1cc(CN2CCN(Cc3ccc4cc(F)ccc4n3)CC2CCO)cc(OC)c1 (stereo unspecified)	–	–	–	–	–
O=C(CCN1CCCCC1)Nc1ccc2c(c1)C(=O)c1ccc(NC(=O)CCN3CCCCC3)cc1C2=O	·	·	·	–	·
O=C(Nc1ccc(NC(=O)C2CC2)cc1)c1cccs1	–	–	–	–	–
CCOc1ccc2nc(CN3CCN(Cc4ccccc4OCC)C(CCO)C3)ccc2c1 (stereo unspecified)	26µM	–	–	·	23µM
CCOc1ccccc1CN1CCN(Cc2ccc3cc(F)ccc3n2)CC1CCO (stereo unspecified)	–	–	–	·	?
CCCCNS(=O)(=O)c1ccc(NC(=O)c2cccs2)cc1	?	–	–	–	?
COc1cc(-c2cc(-c3ccc(F)cc3)nc(N)c2C#N)ccc1O	?	–	–	?	?
CCOc1cc(-c2c(C#N)c(N)nc3c2CCCC3)ccc1O	21µM	–	–	–	?
CCOc1cc(-c2cc(-c3ccc(N)cc3)nc(N)c2C#N)ccc1O	18µM	–	–	–	15µM
CCOc1cc(-c2cc(-c3ccccc3)nc(N)c2C#N)ccc1O	?	–	–	–	23µM
CCCn1c(SCC(=O)Nc2cccc(C)n2)nnc1C(C)C	–	–	–	–	–
Nc1cccc2c1C(=O)N(CC(=O)NC13CC4CC(CC(C4)C1)C3)C2=O	–	–	–	–	–
O=C(Cn1sc2ccccc2c1=O)Nc1ccccc1	2.1µM	·	·	·	2.3µM
O=C(Cn1sc2ccccc2c1=O)NC12CC3CC(CC(C3)C1)C2	1.8µM	–	–	–	1.5µM
Fc1ccc(-c2ccc(/C=N/n3cnnc3)o2)cc1	–	–	–	–	–
COCCn1c(COc2cccc(OC)c2)nnc1SCC(=O)NC1CCCCC1	?	–	–	–	–
Cc1nnc(N2CCN(c3ccccc3)CC2)c2c1nnn2Cc1ccc(F)cc1	?	·	–	–	16µM
Cc1ccc(CNc2nnc(C)c3nnn(Cc4ccc(F)cc4)c23)cc1	–	·	–	–	?
Cc1ccc(-n2c(-c3ccc(Cl)cc3)c[n+]3c2CCC3)cc1	3.3µM	?	?	–	3.3µM
FC(F)Sc1ccc(-n2c(-c3ccc(Cl)cc3)c[n+]3c2CCC3)cc1	15µM	–	–	–	12µM
Cc1ccc(-n2c(-c3ccccc3)c[n+]3c2CCC3)cc1	0.65µM	–	–	–	1µM
NC(=O)C1CCCCc2c1[nH]c1ccc(Cl)cc21 (stereo unspecified)	–	–	–	·	–
O=C(Cc1cccs1)N(Cc1ccco1)C1(C(=O)NC2CCCC2)CCCCC1	?	–	–	–	?
O=C(NCc1ccccn1)c1ccc(Cl)c(S(=O)(=O)Nc2ccccc2C(=O)NCc2ccccn2)c1	?	–	–	–	–
CC(C)NC(=O)C1(C#N)C=C1c1ccccc1 (stereo unspecified)	16µM	·	·	·	?
SMILES	TDP1 cell noCPT	uPA generation	miR-21 reporter	TDP1 block	DT40 TDP1 CPT
CCOC(=O)c1c(C)[nH]c(C(=O)N/N=C\c2ccccc2O)c1C	3.7µM	?	–	–	4.1µM
COc1ccc(/C=N/NC(=O)c2[nH]nc3c2CCc2ccccc2-3)cc1OC	2.6µM	?	–	–	6.5µM
COc1ccccc1/C=N/NC(=O)c1[nH]c(C)c(C(=O)N/N=C/c2ccccc2OC)c1C	–	–	–	–	–
CCOC(=O)c1c(C)[nH]c(C(=O)N/N=C/c2ccc(OC)c(OC)c2)c1C	0.92µM	?	–	–	1.2µM
CNC(=O)c1[nH]nc2c1CCc1ccccc1-2	–	–	–	·	–
CCOC(=O)c1c(C)[nH]c(C(=O)N/N=C/c2cc([N+](=O)[O-])ccc2O)c1C	6.5µM	–	–	–	6.5µM
NS(=O)(=O)c1ccc(CNC(=S)Nc2cc(S(=O)(=O)N3CCOCC3)ccc2Cl)cc1	–	–	·	·	–
CC1CN(C(=O)CN2C(=O)NC3(CCCC3)C2=O)C(=Nc2cccc(S(=O)(=O)N(C)C)c2)S1 (stereo unspecified)	–	–	·	–	–
Cc1cccc(C)c1NC(=O)CN(C)C(=O)CN1C(=O)NC(C)(C)C1=O	–	–	·	–	–
Cc1ccc(/C=N/NC(=O)C(c2ccncc2)N2CCOCC2)cc1 (stereo unspecified)	–	–	–	–	–
COc1ccc(Br)cc1/C=N/NC(=O)C(c1ccncc1)N1CCOCC1 (stereo unspecified)	23µM	–	–	–	?
N#C/C(=C1\SCC(c2ccccc2Cl)S1)n1ccnc1 (stereo unspecified)	24µM	·	·	·	?
Cc1ccc(OCC(=O)Nc2ccccc2F)cc1C	–	–	–	–	–
O=C(CSc1ncnc2nc[nH]c12)N1CCN(c2ccc(Cl)cc2)CC1	13µM	·	–	–	23µM
O=C(CSc1ncnc2nc[nH]c12)c1ccc2ccccc2c1	12µM	–	–	–	?
c1nc(SSc2ncnc3nc[nH]c23)c2[nH]cnc2n1	7.3µM	–	·	·	5.8µM
OCC[C@H]1C[C@@H](O)[C@H](O)[C@]2(Cc3ccccc3CCO2)O1	–	–	·	·	–
NC(c1csc(Nc2ccc(C(=O)NCCO)cc2)n1)C1CCCCC1 (stereo unspecified)	6.5µM	·	·	·	10µM
CC(=O)c1ccc(Nc2nc(C(N)C3CCCCC3)cs2)cc1 (stereo unspecified)	12µM	·	·	·	13µM
CC(=O)Oc1c(Cl)c(N2CCOCC2)c(OC(C)=O)c2ccccc12	16µM	–	–	–	21µM
COCOCCn1cc(CN2CCS(=O)(=O)N(Cc3ccc(-c4ccc(OC)c(OC)c4)cc3)C(C)C2=O)nn1 (stereo unspecified)	10µM	·	·	·	16µM
COCOCCn1cc(CN2CCS(=O)(=O)N(Cc3ccc(-c4ccc(Cl)c(Cl)c4)cc3)C(C)C2=O)nn1 (stereo unspecified)	4.1µM	·	·	·	4.1µM
COCOCCn1cc(CN2CCS(=O)(=O)N(Cc3ccc(-c4ccc(C)cc4)cc3)C(C)C2=O)nn1 (stereo unspecified)	15µM	·	·	·	?
COc1cccc(/C=N/NC(=O)c2cccc(N3CCCC3=O)c2)c1	–	–	–	?	–
Cn1c(-c2ccccc2[N+](=O)[O-])[n+](C)c2ccccc21	5.8µM	–	–	–	13µM
Nc1nc(Nc2ccccc2)sc1C(=O)c1ccccc1	?	–	–	–	–
COc1ccc(CC(N)c2csc(Nc3ccc(C(=O)c4ccccc4)cc3)n2)cc1 (stereo unspecified)	9.2µM	·	·	·	12µM
NC(c1csc(Nc2ccc(C(=O)c3ccccc3)cc2)n1)c1ccccc1Cl (stereo unspecified)	?	·	·	·	21µM
COc1ccc(CC(N)c2csc(Nc3ccc(C(C)=O)cc3)n2)cc1 (stereo unspecified)	21µM	·	·	·	26µM
